Reference: PMC2913404 (Neurobiology of disease, 2010)

Amino acid sequences for entries named in this document (tags omitted). Residues count along the entry.
UniProt P05067, 672-713 limits assumed: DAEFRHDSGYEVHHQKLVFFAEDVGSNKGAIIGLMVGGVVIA
UniProt P05067, 672-711 limits assumed: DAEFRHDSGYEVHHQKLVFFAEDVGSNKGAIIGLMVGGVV

Key:
SDPM1 / SDPM2 peptide = assay: Serum antibody titer to SDPM1/SDPM2 after immunization; format: in vivo, mouse; conditions: young, without adjuvant (S2A)
Aβ1–42 amyloid = Aβ1–42 amyloid (Homo sapiens, UniProt P05067); assay: Peptide binding to immobilized Aβ1–42 amyloid; conditions: ELISA, Aβ1–42 amyloid (Fig 1A)
Aβ1–40 amyloid = Aβ1–40 amyloid (Homo sapiens, UniProt P05067); assay: Peptide binding to immobilized Aβ1–40 amyloid; conditions: ELISA, same concentration range as SDPM1 (Fig 1A)

DWGKGGRWRLWPGASGKTEA [SDPM2] was tested, and the “SDPM1 titers relative to SDPM2 titers” value (SDPM1 / SDPM2 peptide) was “showed the opposite trend”, the “concentration above which binding was significant” value (Aβ1–42 amyloid) was “above 1 µM” and the “binding to Aβ1–40 amyloid” value (Aβ1–40 amyloid) was “minimal binding to Aβ1–40 amyloid”.
